Values quoted from earlier work, collected in patent US8530423B2, “Anxiolytic compositions containing αs1-casein-derived peptides” (Universite de Lorraine, priority 2008, dated 2013).

Molecular target: angiotensin-I converting enzyme (Homo sapiens, UniProt P12821)
Conditions: literature (MARUYAMA et al.); cited from earlier work

For “23-24: αs1-casein peptide 23-24 (FF; UniProt P02662 38-39, looked up, fragment)”, the “angiotensin-I converting enzyme inhibition” value is given as “angiotensin-I converting enzyme inhibitors”.
